Results from patent US20200317660A1, “Quinazolinone Compound and Application Thereof” (LUOXIN PHARMACEUTICAL (SHANGHAI) CO., LTD., priority 2017, published 2020).
pIC50: −log10 of the molar value.

The chains behind the UniProt entries cited, without tags or fusion partners. Where a name states a change or a piece, a line headed by the entry shows the natural chain unless it says otherwise.
UniProt P48736, whole entry: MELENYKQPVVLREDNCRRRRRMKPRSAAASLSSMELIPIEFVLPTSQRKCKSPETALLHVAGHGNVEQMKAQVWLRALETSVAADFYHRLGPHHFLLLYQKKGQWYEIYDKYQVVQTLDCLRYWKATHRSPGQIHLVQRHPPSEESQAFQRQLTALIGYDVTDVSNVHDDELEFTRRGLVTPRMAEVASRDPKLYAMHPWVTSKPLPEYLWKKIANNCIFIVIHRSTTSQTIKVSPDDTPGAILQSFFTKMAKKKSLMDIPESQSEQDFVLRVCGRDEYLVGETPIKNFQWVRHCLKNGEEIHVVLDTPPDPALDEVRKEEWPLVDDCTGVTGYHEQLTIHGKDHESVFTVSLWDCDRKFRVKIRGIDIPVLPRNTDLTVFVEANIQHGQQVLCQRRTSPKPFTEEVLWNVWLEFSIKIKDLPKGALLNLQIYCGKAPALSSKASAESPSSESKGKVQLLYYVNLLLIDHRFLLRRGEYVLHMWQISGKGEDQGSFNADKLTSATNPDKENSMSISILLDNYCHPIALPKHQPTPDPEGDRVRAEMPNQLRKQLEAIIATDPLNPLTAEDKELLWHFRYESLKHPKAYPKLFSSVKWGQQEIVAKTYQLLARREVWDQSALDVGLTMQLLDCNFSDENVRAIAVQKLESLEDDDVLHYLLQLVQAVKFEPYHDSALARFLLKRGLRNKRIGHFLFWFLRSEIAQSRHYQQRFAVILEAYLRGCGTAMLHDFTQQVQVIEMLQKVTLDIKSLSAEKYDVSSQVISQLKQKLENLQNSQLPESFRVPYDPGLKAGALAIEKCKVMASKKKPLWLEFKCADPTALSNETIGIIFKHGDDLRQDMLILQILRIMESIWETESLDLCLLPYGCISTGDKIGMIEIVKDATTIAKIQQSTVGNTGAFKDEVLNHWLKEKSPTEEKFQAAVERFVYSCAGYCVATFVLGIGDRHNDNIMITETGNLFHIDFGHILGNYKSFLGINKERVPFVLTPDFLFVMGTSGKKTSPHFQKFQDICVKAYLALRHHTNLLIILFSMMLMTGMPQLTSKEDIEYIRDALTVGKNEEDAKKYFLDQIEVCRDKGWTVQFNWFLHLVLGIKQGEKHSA
UniProt P42338, whole entry: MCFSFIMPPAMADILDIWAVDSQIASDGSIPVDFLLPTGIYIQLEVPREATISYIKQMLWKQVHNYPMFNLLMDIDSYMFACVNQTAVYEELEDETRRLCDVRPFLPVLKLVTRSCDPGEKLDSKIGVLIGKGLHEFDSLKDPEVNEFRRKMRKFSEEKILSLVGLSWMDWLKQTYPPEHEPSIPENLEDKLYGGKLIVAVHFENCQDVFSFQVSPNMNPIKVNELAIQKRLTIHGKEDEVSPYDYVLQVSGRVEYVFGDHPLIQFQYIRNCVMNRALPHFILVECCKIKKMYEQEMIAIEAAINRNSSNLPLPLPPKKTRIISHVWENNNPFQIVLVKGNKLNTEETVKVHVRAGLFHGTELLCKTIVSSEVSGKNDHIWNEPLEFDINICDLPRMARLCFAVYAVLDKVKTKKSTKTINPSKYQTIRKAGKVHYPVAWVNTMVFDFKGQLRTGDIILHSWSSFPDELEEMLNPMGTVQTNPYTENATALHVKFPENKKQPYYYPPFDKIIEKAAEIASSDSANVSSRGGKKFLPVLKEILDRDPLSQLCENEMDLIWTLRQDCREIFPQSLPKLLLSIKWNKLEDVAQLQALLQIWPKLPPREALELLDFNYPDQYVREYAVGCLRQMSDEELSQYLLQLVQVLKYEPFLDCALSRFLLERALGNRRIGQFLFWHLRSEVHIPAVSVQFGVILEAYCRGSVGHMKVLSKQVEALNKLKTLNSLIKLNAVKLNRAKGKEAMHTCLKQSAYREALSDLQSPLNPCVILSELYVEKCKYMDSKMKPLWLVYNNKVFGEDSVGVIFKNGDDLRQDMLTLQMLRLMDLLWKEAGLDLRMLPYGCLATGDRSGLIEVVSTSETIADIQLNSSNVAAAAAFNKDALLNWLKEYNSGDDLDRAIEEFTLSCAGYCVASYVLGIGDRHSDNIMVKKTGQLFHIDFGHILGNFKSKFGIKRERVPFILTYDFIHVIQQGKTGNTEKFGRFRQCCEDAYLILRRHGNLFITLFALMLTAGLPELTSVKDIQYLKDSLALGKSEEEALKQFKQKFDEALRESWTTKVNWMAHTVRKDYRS
UniProt O00329, whole entry: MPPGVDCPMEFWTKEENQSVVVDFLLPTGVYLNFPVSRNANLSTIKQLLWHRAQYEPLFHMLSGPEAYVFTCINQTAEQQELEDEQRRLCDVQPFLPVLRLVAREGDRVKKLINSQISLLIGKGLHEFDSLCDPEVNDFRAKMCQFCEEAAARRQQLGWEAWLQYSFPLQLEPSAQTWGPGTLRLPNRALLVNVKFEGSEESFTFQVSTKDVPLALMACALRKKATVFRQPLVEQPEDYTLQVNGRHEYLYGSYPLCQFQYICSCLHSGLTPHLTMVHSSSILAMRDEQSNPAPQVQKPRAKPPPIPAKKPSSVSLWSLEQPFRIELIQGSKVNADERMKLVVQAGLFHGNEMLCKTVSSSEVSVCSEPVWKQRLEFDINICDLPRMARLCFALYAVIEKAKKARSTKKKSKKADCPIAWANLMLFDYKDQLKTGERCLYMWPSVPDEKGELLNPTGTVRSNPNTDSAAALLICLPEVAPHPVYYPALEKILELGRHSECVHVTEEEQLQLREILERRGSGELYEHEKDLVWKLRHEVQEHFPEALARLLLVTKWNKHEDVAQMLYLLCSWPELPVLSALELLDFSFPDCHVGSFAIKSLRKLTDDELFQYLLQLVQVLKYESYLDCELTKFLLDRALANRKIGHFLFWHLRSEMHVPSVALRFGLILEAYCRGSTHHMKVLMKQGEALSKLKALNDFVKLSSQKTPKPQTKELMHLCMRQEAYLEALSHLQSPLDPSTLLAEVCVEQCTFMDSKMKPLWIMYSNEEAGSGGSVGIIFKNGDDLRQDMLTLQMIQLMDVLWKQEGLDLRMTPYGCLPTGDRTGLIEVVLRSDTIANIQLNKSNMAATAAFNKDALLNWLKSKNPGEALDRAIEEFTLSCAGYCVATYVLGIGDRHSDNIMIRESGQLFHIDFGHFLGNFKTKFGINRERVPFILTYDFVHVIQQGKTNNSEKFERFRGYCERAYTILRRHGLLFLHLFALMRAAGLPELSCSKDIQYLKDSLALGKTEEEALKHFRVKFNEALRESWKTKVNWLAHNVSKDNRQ
UniProt P42336, whole entry: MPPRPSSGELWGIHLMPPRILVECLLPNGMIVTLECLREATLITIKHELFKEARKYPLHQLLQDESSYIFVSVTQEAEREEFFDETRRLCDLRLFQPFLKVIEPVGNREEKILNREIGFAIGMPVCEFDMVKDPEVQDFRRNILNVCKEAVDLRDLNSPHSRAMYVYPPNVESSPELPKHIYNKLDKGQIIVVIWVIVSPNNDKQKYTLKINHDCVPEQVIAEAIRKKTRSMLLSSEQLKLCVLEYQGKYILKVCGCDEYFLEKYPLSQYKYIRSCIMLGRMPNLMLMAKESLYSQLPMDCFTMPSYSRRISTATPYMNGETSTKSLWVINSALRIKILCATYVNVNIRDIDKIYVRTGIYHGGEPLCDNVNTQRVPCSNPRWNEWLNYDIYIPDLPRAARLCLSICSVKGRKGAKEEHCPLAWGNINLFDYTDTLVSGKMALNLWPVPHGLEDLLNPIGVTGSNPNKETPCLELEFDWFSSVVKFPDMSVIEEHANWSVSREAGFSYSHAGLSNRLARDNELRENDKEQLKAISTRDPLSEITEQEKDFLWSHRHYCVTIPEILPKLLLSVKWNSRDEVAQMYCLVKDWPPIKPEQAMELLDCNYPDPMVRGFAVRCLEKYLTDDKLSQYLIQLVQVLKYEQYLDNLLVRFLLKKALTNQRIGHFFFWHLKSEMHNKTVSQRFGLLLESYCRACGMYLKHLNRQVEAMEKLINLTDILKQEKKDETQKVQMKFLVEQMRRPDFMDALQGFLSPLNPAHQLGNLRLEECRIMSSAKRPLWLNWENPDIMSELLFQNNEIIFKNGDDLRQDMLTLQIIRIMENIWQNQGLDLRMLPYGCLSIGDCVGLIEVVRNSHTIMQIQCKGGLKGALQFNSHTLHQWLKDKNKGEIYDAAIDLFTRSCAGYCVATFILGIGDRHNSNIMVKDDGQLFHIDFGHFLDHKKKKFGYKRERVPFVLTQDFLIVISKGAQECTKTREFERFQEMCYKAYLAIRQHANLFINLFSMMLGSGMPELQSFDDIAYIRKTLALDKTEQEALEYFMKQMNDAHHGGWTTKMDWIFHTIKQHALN
UniProt P27986, whole entry partner: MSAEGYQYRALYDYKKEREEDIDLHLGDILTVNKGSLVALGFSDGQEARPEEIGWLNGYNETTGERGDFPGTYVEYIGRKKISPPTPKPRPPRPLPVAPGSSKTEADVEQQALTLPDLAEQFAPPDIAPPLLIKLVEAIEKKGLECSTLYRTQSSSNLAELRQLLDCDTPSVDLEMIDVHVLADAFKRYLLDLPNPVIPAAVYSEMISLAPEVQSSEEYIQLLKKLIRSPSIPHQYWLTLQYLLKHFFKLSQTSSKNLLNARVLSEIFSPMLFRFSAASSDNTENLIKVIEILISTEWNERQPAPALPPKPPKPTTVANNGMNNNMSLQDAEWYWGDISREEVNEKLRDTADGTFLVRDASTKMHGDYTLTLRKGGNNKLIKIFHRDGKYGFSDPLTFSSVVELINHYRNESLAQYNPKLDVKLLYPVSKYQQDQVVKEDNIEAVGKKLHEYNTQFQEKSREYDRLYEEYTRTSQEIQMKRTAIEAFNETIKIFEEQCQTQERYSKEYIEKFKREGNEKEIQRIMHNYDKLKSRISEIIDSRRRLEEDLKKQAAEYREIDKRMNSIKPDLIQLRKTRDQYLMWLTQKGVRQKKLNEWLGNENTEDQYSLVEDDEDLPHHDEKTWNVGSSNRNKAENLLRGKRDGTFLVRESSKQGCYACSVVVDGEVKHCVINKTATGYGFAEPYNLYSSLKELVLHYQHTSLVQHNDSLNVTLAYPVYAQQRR

Columns and labels:
PI3Kγ = PI3Kγ (Homo sapiens, UniProt P48736); experiment: In vitro test of enzyme activity (ADP-Glo lipokinase), PI3K gamma; settings: read-out: PI3Kγ IC50, 25 μM ATP, 50 μM PIP2:3PS, 120 min
PI3Kβ = PI3Kβ (Homo sapiens, UniProt P42338); experiment: In vitro test of enzyme activity (ADP-Glo lipokinase), PI3K beta; settings: read-out: PI3Kβ IC50, 40 μM ATP, 50 μM PIP2:3PS, 120 min
PI3Kδ = PI3Kδ (Homo sapiens, UniProt O00329); experiment: In vitro test of enzyme activity (ADP-Glo lipokinase), PI3K delta; settings: read-out: PI3Kδ IC50, 40 μM ATP, 50 μM PIP2:3PS, 120 min
PI3Kα = PI3Kα (Homo sapiens, UniProt P42336); experiment: In vitro test of enzyme activity (ADP-Glo lipokinase), PI3K alpha; settings: read-out: PI3Kα IC50, 40 μM ATP, 50 μM PIP2:3PS, 120 min

pIC50 (PI3Kγ)	pIC50 (PI3Kβ)	pIC50 (PI3Kδ)	pIC50 (PI3Kα)	SMILES
7.22	6.62	8.09	8.31	CNC(=O)[C@H]1C[C@@H](n2cnc3ccc(-c4cnc(C)c(NS(=O)(=O)c5ccc(F)cc5Cl)c4)cc3c2=O)C1
7.15	6.09	7.38	8.31	CNC(=O)[C@H]1C[C@@H](n2cnc3ccc(-c4cncc(NS(=O)(=O)c5sc(C)nc5C)c4)cc3c2=O)C1
7.68	6.42	7.98	8.95	CNC(=O)[C@H]1C[C@H](n2cnc3ccc(-c4cncc(NS(=O)(=O)c5sc(C)nc5C)c4)cc3c2=O)C1
7.45	6.62	8.91	8.93	Cc1nc(C)c(S(=O)(=O)Nc2cc(-c3ccc4ncn([C@H]5C[C@@H](C(=O)NC(C)C)C5)c(=O)c4c3)cnc2C)s1
7.42	6.22	7.46	8.51	Cc1ncc(-c2ccc3ncn(CC(C)C(N)=O)c(=O)c3c2)cc1NS(=O)(=O)c1ccc(F)cc1Cl (single isomer, unassigned) [WX028]
7.67	6.34	7.55	8.31	Cc1ncc(-c2ccc3ncn(CC(C)C(N)=O)c(=O)c3c2)cc1NS(=O)(=O)c1ccc(F)cc1Cl (single isomer, unassigned) [WX029]
7.20	5.92	7.30	–	CNC(=O)C(C)Cn1cnc2ccc(-c3cnc(C)c(NS(=O)(=O)c4ccc(F)cc4Cl)c3)cc2c1=O (single isomer, unassigned) [WX038]
7.35	6.21	7.51	8.23	CNC(=O)C(C)Cn1cnc2ccc(-c3cnc(C)c(NS(=O)(=O)c4ccc(F)cc4Cl)c3)cc2c1=O (single isomer, unassigned) [WX039]
7.42	6.90	8.37	8.77	Cc1nc(C)c(S(=O)(=O)Nc2cc(-c3ccc4ncn(CC(C)C(=O)N(C)C)c(=O)c4c3)cnc2C)s1 (single isomer, unassigned) [WX042]
7.75	6.67	8.45	8.44	Cc1nc(C)c(S(=O)(=O)Nc2cc(-c3ccc4ncn(CC(C)C(=O)N(C)C)c(=O)c4c3)cnc2C)s1 (single isomer, unassigned) [WX043]
7.30	5.69	7.72	8.60	Cc1nc(C)c(S(=O)(=O)Nc2cc(-c3ccc4ncn(CC(C)C(=O)NC(C)C)c(=O)c4c3)cnc2C)s1 (single isomer, unassigned) [WX048]
7.58	6.15	7.80	8.22	Cc1nc(C)c(S(=O)(=O)Nc2cc(-c3ccc4ncn(CC(C)C(=O)NC(C)C)c(=O)c4c3)cnc2C)s1 (single isomer, unassigned) [WX049]
7.80	6.72	8.16	8.38	CNC(=O)C(C)CCn1cnc2ccc(-c3cnc(OC)c(NS(=O)(=O)c4ccc(F)cc4Cl)c3)cc2c1=O (single isomer, unassigned) [WX050]
7.53	6.58	7.92	7.93	CNC(=O)C(C)CCn1cnc2ccc(-c3cnc(OC)c(NS(=O)(=O)c4ccc(F)cc4Cl)c3)cc2c1=O (single isomer, unassigned) [WX051]
7.20	6.46	8.04	8.37	Cc1nc(C)c(S(=O)(=O)Nc2cc(-c3ccc4ncn(CC(C)C(=O)N5CCCC5)c(=O)c4c3)cnc2C)s1 (single isomer, unassigned) [WX052]
8.05	6.47	8.62	8.37	Cc1nc(C)c(S(=O)(=O)Nc2cc(-c3ccc4ncn(CC(C)C(=O)N5CCCC5)c(=O)c4c3)cnc2C)s1 (single isomer, unassigned) [WX053]
7.06	5.44	7.20	8.15	Cc1ncc(-c2ccc3ncn(CC(C)C(=O)NC4CC4)c(=O)c3c2)cc1NS(=O)(=O)c1ccc(F)cc1Cl (single isomer, unassigned) [WX054]
7.22	5.88	7.28	7.73	Cc1ncc(-c2ccc3ncn(CC(C)C(=O)NC4CC4)c(=O)c3c2)cc1NS(=O)(=O)c1ccc(F)cc1Cl (single isomer, unassigned) [WX055]
7.92	6.50	7.91	8.14	CCNC(=O)C(C)Cn1cnc2ccc(-c3cnc(OC)c(NS(=O)(=O)c4ccc(F)cc4Cl)c3)cc2c1=O (single isomer, unassigned) [WX061]

pIC50 (PI3Kγ)	pIC50 (PI3Kβ)	pIC50 (PI3Kδ)	pIC50 (PI3Kα)	SMILES
8.39	7.59	9.68	9.22	CNC(=O)C(C)Cn1cnc2ccc(-c3cnc(OC)c(NS(=O)(=O)c4sc(C)nc4C)c3)cc2c1=O (single isomer, unassigned) [WX069]
7.07	5.74	7.09	8.23	CCc1ncc(-c2ccc3ncn(CC(C)C(=O)NC)c(=O)c3c2)cc1NS(=O)(=O)c1ccc(F)cc1Cl (single isomer, unassigned) [WX070]
7.18	5.76	7.21	7.67	CCc1ncc(-c2ccc3ncn(CC(C)C(=O)NC)c(=O)c3c2)cc1NS(=O)(=O)c1ccc(F)cc1Cl (single isomer, unassigned) [WX071]
7.29	5.47	7.61	8.10	COc1ncc(-c2ccc3ncn(CC(C)C(=O)NCC(C)C)c(=O)c3c2)cc1NS(=O)(=O)c1ccc(F)cc1Cl (single isomer, unassigned) [WX072]
7.83	6.22	8.15	–	COc1ncc(-c2ccc3ncn(CC(C)C(=O)NC4CC4)c(=O)c3c2)cc1NS(=O)(=O)c1ccc(F)cc1Cl (single isomer, unassigned) [WX076]
–	6.60	–	8.30	CNC(=O)C(C)Cn1cnc2ccc(-c3cnc(OC)c(NS(=O)(=O)c4cccc(Cl)c4)c3)cc2c1=O (single isomer, unassigned) [WX165]
–	6.26	–	8.20	CNC(=O)C(C)Cn1cnc2ccc(-c3cnc(OC)c(NS(=O)(=O)c4ccc(C)c(C)c4)c3)cc2c1=O (single isomer, unassigned) [WX168]
–	6.41	–	7.85	CNC(=O)C(C)Cn1cnc2ccc(-c3cnc(OC)c(NS(=O)(=O)c4ccc(C)c(C)c4)c3)cc2c1=O (single isomer, unassigned) [WX169]
–	6.35	–	8.05	CNC(=O)C(C)Cn1cnc2ccc(-c3cnc(OC)c(NS(=O)(=O)c4cc(C)ccc4C)c3)cc2c1=O (single isomer, unassigned) [WX171]
–	6.98	–	8.50	CNC(=O)C(C)Cn1cnc2ccc(-c3cnc(OC)c(NS(=O)(=O)c4cc(C)ccc4F)c3)cc2c1=O (single isomer, unassigned) [WX172]
–	7.00	–	8.50	CNC(=O)C(C)Cn1cnc2ccc(-c3cnc(OC)c(NS(=O)(=O)c4ccc(C)cc4Cl)c3)cc2c1=O (single isomer, unassigned) [WX176]
–	6.77	–	8.69	CNC(=O)C(C)Cn1cnc2ccc(-c3cnc(OC)c(NS(=O)(=O)c4ccc(C)cc4Cl)c3)cc2c1=O (single isomer, unassigned) [WX177]
–	6.52	–	7.94	CNC(=O)C(C)Cn1cnc2ccc(-c3cnc(OC)c(NS(=O)(=O)c4cc(C)cc(F)c4)c3)cc2c1=O (single isomer, unassigned) [WX187]
–	6.72	–	8.51	CNC(=O)C(C)Cn1cnc2ccc(-c3cnc(OC)c(NS(=O)(=O)c4ccc(C(F)(F)F)cc4Cl)c3)cc2c1=O (single isomer, unassigned) [WX211]
–	6.77	–	8.39	CNC(=O)C(C)Cn1cnc2ccc(-c3cnc(OC)c(NS(=O)(=O)c4cccc(F)c4C)c3)cc2c1=O (single isomer, unassigned) [WX215]
–	6.74	–	8.27	CNC(=O)C(C)Cn1cnc2ccc(-c3cnc(OC)c(NS(=O)(=O)c4cc(F)ccc4F)c3)cc2c1=O (single isomer, unassigned) [WX223]
–	6.70	–	8.28	CNC(=O)C(C)Cn1cnc2ccc(-c3cnc(OC)c(NS(=O)(=O)c4cc(F)ccc4C)c3)cc2c1=O (single isomer, unassigned) [WX225]
–	6.49	–	8.18	CNC(=O)C(C)Cn1cnc2ccc(-c3cnc(OC)c(NS(=O)(=O)c4cc(Cl)cc(Cl)c4)c3)cc2c1=O (single isomer, unassigned) [WX227]
–	5.88	–	7.63	CNC(=O)C(C)Cn1cnc2ccc(-c3cnc(OC)c(NS(=O)(=O)c4ccc(F)c(C(F)(F)F)c4)c3)cc2c1=O (single isomer, unassigned) [WX230]

SMILES	pIC50 (PI3Kγ)	pIC50 (PI3Kβ)	pIC50 (PI3Kδ)	pIC50 (PI3Kα)
Cc1ncc(-c2ccc3ncn(CCCC(=O)NC(C)C)c(=O)c3c2)cc1NS(=O)(=O)c1ccc(F)cc1Cl	7.18	6.38	7.62	8.50
CNC(=O)C(O)Cn1cnc2ccc(-c3cnc(OC)c(NS(=O)(=O)c4ccc(F)cc4Cl)c3)cc2c1=O (single isomer, unassigned) [WX044]	8.03	7.13	8.08	8.32
CNC(=O)C(O)Cn1cnc2ccc(-c3cnc(OC)c(NS(=O)(=O)c4ccc(F)cc4Cl)c3)cc2c1=O (single isomer, unassigned) [WX045]	8.39	6.96	8.19	8.86
